Values of other authors as cited in patent US8404645B2, “Stable formulations of amylin and its analogues” (Novo Nordisk AS, priority 2007, dated 2013).

Details: treated test animals; provoking marked hyperlactemia followed by hyperglycemia

For `CC[C@H](C)[C@H](NC(=O)[C@@H]1CCCN1C(=O)CNC(=O)[C@H](Cc1ccccc1)NC(=O)[C@H](CC(N)=O)NC(=O)[C@H](CC(N)=O)NC(=O)[C@H](CO)NC(=O)[C@H](CO)NC(=O)[C@H](Cc1c[nH]cn1)NC(=O)[C@@H](NC(=O)[C@H](CC(C)C)NC(=O)[C@H](Cc1ccccc1)NC(=O)[C@H](CC(N)=O)NC(=O)[C@H](C)NC(=O)[C@H](CC(C)C)NC(=O)[C@H](CCCNC(=N)N)NC(=O)[C@H](CCC(N)=O)NC(=O)[C@@H](NC(=O)[C@H](C)NC(=O)[C@@H]1CSSC[C@H](NC(=O)[C@@H](N)CCCCN)C(=O)N[C@@H](CC(N)=O)C(=O)N[C@@H]([C@@H](C)O)C(=O)N[C@@H](C)C(=O)N[C@@H]([C@@H](C)O)C(=O)N1)[C@@H](C)O)C(C)C)C(=O)N[C@@H](CC(C)C)C(=O)N1CCC[C@H]1C(=O)N1CCC[C@H]1C(=O)N[C@H](C(=O)N[C@@H](CC(N)=O)C(=O)N[C@H](C(=O)NCC(=O)N[C@@H](CO)C(=O)N[C@@H](CC(N)=O)C(=O)N[C@H](C(=O)N[C@@H](Cc1ccc(O)cc1)C(N)=O)[C@@H](C)O)C(C)C)[C@@H](C)O` [Pro25 Pro28 Pro29-h-amylin], the “Amylin activity in vivo” value is listed as “show amylin activity in vivo”.
